Consider 3 compounds from PubChem BioAssay AID602283 (Johns Hopkins Ion Channel Center, 2012).

Molecules are shown by their SMILES. This is a selection; strong and weak results do not stand in their true shares. Some tests of the compounds listed are not included; inactive here does not mean inactive elsewhere. Activity calls are given as the source filed them.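 Rule for the calls: active = inhibition exceeding 3 SD of buffer-only control wells (cut at about 26% in these data); inactive = the rest.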

The assay in a line: carbachol calcium response changes in non-induced cells, primary screen, counter-screen for RGS4 activator project, cell-based, HEK293 M3R, non-induced RGS4, Fluo-4 calcium (AID 602283).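 Note: percent drop in integrated peak-minus-baseline over baseline Fluo4 ratio after carbachol.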 To be noted: HEK293 M3R non-induced RGS4, Fluo4 calcium flux; at 10 µM; stronger effect = higher value; after carbachol challenge at its EC90. (In general: Counterscreens check selectivity or assay interference.)
Usually inhibition stands for the relative decrease from the control value, in per cent. For `CN(C)C1CCCC1OC(=O)C(O)(c1ccccc1)c1ccccc1` (stereo not drawn), the inhibition was active: 67.8%.

In the case of `C=CCN1CCN(CCOC(=O)C(O)(c2ccccc2)c2ccccc2)CC1`, the inhibition was active: 74.3%.

For the compound `CCN(CC)CC(C)C(C)OC(=O)C(O)(c1ccccc1)c1ccccc1` (stereo not drawn), the inhibition was active: 88.8%.
